Source: patent publication US6645738B1, “DNA molecules encoding the melanocortin 5 receptor protein from rhesus monkey” (Merck & Co., Inc., priority 1998, dated 2003)
Where two headings read alike, the source gives them in different places.

Protein sequences, listed by entry. Tags and fused reporters are not part of them. Lines headed by an entry give the natural chain unless they say otherwise; changes in a name come on top.
UniProt P33032: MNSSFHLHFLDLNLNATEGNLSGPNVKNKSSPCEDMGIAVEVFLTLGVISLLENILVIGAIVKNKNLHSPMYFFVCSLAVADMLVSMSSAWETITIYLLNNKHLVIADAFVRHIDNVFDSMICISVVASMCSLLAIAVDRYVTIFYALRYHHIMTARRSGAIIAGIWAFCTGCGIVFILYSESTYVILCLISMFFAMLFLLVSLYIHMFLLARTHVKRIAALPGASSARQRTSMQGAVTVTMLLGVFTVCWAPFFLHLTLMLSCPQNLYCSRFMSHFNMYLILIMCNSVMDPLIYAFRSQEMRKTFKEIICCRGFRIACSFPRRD
UniProt P01189: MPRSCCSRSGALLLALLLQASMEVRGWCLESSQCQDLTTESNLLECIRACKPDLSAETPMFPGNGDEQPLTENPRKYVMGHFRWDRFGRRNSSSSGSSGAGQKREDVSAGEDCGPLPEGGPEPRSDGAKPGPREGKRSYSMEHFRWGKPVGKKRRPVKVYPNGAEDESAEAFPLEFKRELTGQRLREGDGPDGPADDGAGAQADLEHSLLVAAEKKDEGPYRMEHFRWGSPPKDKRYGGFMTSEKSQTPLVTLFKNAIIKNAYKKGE

What was measured:
[1] = target: T1, human melanocortin 5 receptor (human, UniProt P33032 1-325); experiment: displacement of 0.1 nM 125I-NDP-α-MSH from CHO cells stably expressing hMC-5R
Method: (§1) The receptor plasmid was transfected into CHO dhfr-cells using lipofectamin (GIBCO). Transfected cells were selected by G418 for at least 2–3 weeks before binding and functional assays were performed. […] After incubation at room temperature for 3 hours, wells were washed 3 times by PBS, lysed in 0.5 ml of 0.05% SDS and counted by a gamma counter.
(§2) A cDNA encoding human MC-5R subcloned into the pIRES1neo expression vector (Clontech) and stably transfected into CHO cells was used as a reference for the pharmacological properties of the rhesus MC-5R. Single clones were used in all pharmacological studies as described above. The functional properties of rhMC-5R were determined by heterologous expression in CHO cells.

human MC-5R [2] = target: T2, human MC-5R (Homo sapiens, UniProt P33032); assay type: binding; details: read-out: IC50, nM hMC-5R
T2 construct: expressed in transfected cells
Method: as §1, with “dhfr- cells” for “dhfr-cells”, “2-3” for “2–3”
(§3) Single clones were used in all pharmacological studies as described above.
as §2

human MC-5R [3] = target: T2, human MC-5R; assay type: cell-based; details: read-out: EC50, nM hMC-5R
Method: To determine the functional activation of receptors, stably transfected CHO cells were washed once with PBS without Ca^++/Mg^++, dissociated by non-enzymatic dissociation medium (Specialty Media, Inc.) at 37° C. for 10 min. Dissociated cells were resuspended in EBSS buffer containing 25 mM Hepes, 5 mM MgCl2, 0.1% BSA and 50 mM IBMX and incubated with agonist at room temperature for 45 min. The agonist activation was terminated by boiling for 4 min.
as §3, §2

[4] = target: T1, human melanocortin 5 receptor; experiment: cell-based or functional assay

| Molecule | IC50 [1] | IC50 (human MC-5R [2]) | EC50 (human MC-5R [3]) | also measured |
| --- | --- | --- | --- | --- |
| MT-II (peptide) | 18 nM |  |  |  |
| MT-II [MTII] |  | 18 ± 3 nM | 0.8 ± 0.2 nM |  |
| NDP-α-MSH |  | 0.5 ± 0.1 nM | 0.3 ± 0.1 nM |  |
| human ACTH(1-24) [ACTH1-24] |  | 1050 ± 500 nM |  | EC50 (human MC-5R [3]; intracellular cAMP, CHO cells, agonist 45 min at room temperature): 5 ± 1 nM |
| α-MSH |  | 1800 ± 200 nM | 12 nM |  |
| SYSMEHFRWGKPV (peptide, UniProt P01189 138-150, looked up, also called α-MSH) [α-melanocyte stimulating hormone] | 1800 nM |  |  | EC50, nM (cAMP synthesis in CHO cells) [4]: 12 nM |
| SYSMEHFRWGKPVGKKRRPVKVYP (peptide, UniProt P01189 138-161, looked up, range 138-161) [human ACTH(1-24)] | 1050 nM |  |  |  |
